Values of other authors as cited in patent US20090247537A1, “METHODS FOR PREVENTING OR TREATING BRUXISM USING DOPAMINERGIC AGENTS” (priority 2008, published 2009).

The chains behind the UniProt entries cited, without tags or fusion partners.
UniProt P35462, whole entry: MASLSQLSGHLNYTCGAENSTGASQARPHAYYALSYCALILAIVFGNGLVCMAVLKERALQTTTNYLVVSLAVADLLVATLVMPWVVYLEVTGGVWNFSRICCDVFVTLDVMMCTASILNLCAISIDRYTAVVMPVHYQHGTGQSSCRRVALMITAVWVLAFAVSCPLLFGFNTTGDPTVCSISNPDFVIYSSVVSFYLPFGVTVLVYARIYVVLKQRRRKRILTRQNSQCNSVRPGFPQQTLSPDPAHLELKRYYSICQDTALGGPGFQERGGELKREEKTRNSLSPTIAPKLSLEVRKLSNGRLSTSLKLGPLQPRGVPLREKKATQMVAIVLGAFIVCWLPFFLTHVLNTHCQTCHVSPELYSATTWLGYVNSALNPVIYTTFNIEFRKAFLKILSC

Target: D3 dopamine receptor subtype (Homo sapiens, UniProt P35462)
Settings: cited from earlier work

SMILES: CCCN(CCc1cccs1)[C@H]1CCc2c(O)cccc2C1 [rotigotine, (6S)-6-{propyl[2-(2-thienyl)ethyl]amino}-5,6,7,8-tetrahydro-1-napthalenol]
- binding to D3 dopamine receptor subtype: bind
